The text below walks through data of US20100029704A1, “SALT OF NONSTEROIDAL ANTI-INFLAMMATORY DRUG AND ORGANIC AMINE COMPOUND AND USE THEREOF” (priority 2007, published 2010).

This data set can be described thus: Skin permeability test using isolated rat abdominal skin (Franz-type diffusion cell). To be noted: accumulated up to 6 hours; 2.5 wt % as NSAID free acid in diethyl sebacate/propylene glycol; 32° C.

Substance diclofenac-donepezil salt yielded a diclofenac permeation amount of 14.3 μg/cm^2.
Regarding flurbiprofen-donepezil salt, the flurbiprofen permeation amount is given as 28.3 μg/cm^2.
As to ketoprofen-tolperisone salt, the Ketoprofen permeation amount is recorded as 60.3 μg/cm^2.
